The values below come from article PMC12163822, “Synthesis and Pharmacological Characterization of a Novel Cannabinoid Receptor 1 Antagonist” (ACS Omega, 2025).

Sequences of proteins named here, by UniProt entry; tags and fusion partners are left off.
UniProt P47746, whole entry: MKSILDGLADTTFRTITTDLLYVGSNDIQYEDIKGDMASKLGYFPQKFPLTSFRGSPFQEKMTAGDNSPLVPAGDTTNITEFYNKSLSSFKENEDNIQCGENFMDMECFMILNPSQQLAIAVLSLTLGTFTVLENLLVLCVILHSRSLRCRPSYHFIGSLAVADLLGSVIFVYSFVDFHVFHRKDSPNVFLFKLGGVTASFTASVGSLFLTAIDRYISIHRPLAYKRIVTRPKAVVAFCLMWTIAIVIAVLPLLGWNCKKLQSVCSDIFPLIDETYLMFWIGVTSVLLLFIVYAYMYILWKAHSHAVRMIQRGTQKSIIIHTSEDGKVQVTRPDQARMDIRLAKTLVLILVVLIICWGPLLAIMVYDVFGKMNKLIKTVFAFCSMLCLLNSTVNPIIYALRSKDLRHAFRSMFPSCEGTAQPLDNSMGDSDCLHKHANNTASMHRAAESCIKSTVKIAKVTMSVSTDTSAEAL
UniProt P20272, whole entry: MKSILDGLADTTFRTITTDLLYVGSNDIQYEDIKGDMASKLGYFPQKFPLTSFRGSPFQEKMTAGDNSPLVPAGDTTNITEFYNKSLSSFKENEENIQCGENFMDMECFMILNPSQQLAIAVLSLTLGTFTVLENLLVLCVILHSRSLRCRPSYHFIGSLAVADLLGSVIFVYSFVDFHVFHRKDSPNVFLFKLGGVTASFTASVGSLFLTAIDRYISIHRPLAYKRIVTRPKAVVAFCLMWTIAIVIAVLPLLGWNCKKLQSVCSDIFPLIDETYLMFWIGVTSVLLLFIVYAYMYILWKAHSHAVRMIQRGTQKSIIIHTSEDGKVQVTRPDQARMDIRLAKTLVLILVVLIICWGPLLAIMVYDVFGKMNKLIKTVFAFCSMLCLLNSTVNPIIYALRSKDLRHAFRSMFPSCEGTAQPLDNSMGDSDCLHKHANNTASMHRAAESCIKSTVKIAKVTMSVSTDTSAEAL

The target of assay [1] is T1, CB1 receptor (Mus musculus, UniProt P47746).
T1 construct: fresh frozen sections from brain samples from wild-type; from tissue; host or cells: Swiss mouse brain sections
As to the kind of experiment: Functional [35S]GTPγS autoradiography in mouse brain slices. Particulars: compound alone 10 µM. It counts as biochemical, Swiss mice. Here is the method: (§1) To perform functional autoradiography of cannabinoid receptors, fresh frozen sections from brain samples from wild-type Sprague–Dawley rats (n = 5) and Swiss mice (n = 5) were used to test the newly synthesized compound which had shown the best affinity for cannabinoid receptors.
(§2) All brain sections were air-dried for 30 min and then immersed in Coplin jars for preincubation (4 times, 15 min each time) in an HEPES-based buffer (50 mM HEPES, 100 mM NaCl, 3 mM MgCl2, 0.2 mM EGTA, 0.5% BSA; pH 7.4) at 30 °C. The objective of this preincubation was the removal of endogenous ligands. Slices were then incubated for 2 h at 30 °C in the same buffer supplemented with 2 mM GDP, 1 mM DTT, and 0.04 nM [^35S]-GTPγS and the target compound (10 μM) alone, as well as the target compound and CP55,940 (10 μM) together. Basal [^35S]-GTPγS binding was defined in the absence of the agonists in two consecutive slices. To define nonspecific binding, 10 μM of unlabeled GTPγS was added to the incubation in another section. Following incubation, slices were twice washed in an ice-cold 50 mM HEPES buffer (pH 7.4), dried, and exposed for 48 h to β-radiation sensitive film with a set of [^14C] standards calibrated for [^35S]. Calibrated films were scanned and quantified using Fiji software (Fiji, Bethesda, […], USA). The signal corresponding to nonspecific binding was previously subtracted from the basal and agonist-stimulated binding. Then, the data was expressed as the percentage of stimulation over basal following the formula: ([^35S]-GTPγS agonist-stimulated binding) × 100/([^35S]-GTPγS basal binding)-100.
Background: GTPγS is a poorly hydrolysed GTP analogue; its binding reports G protein activation.

Assay [2] has as its target CB1 receptor (Rattus norvegicus, UniProt P20272). As to the kind of experiment: Functional [35S]GTPγS autoradiography in rat brain slices. In kind it is biochemical, Sprague-Dawley rat. The arrangement: fresh frozen sections from brain samples from wild-type; from tissue; host or cells: Sprague-Dawley rat brain sections. Particulars: compound alone 10 µM. As for the experimental part:
as §1, §2

The mark [3] stands for this setting: nucleus basalis magnocellularis.

As to “(−)-cis-3-[2-Hydroxy-4-(1,1-dimethylheptyl)phenyl]-trans-4-(3-hydroxypropyl) cyclohexanol [CP55,940, reference compound]”, the “[35S]GTPγS binding, Stimulation (% over basal)” value at CB1 receptor [1] (amygdala) came to 88 ± 60 % over basal; at CB1 receptor [1] (cerebellum (gray matter)), 128 ± 59 % over basal; at CB1 receptor [1] (cortex), 40 ± 31 % over basal; at CB1 receptor [1] (globus pallidus), 412 ± 189 % over basal; at CB1 receptor [1] (hippocampus dorsal), 77 ± 23 % over basal; on CB1 receptor [1] (setting [3]) it was 91 ± 68 % over basal. Further, the “[35S]GTPγS binding, Stimulation (% over basal)” value is given as 56 ± 36 % over basal at CB1 receptor [1] (striatum); 747 ± 164 % over basal at CB1 receptor [1] (substantia nigra); 49 ± 12 % over basal on CB1 receptor [2] (amygdala); 68 ± 77 % over basal at CB1 receptor [2] (cerebellum (gray matter)); 40 ± 25 % over basal at CB1 receptor [2] (cortex); 833 ± 352 % over basal on CB1 receptor [2] (globus pallidus). The “[35S]GTPγS binding, Stimulation (% over basal)” value amounted to 31 ± 9 % over basal on CB1 receptor [2] (hippocampus dorsal), 164 ± 35 % over basal at CB1 receptor [2] (setting [3]), 83 ± 81 % over basal at CB1 receptor [2] (striatum) and 314 ± 222 % over basal at CB1 receptor [2] (substantia nigra).
